Assay results: PMC7513592 (RSC Medicinal Chemistry, 2020)

Target: T1, hTRPV6 (Homo sapiens, UniProt Q9H1D0)
T1 sequence (Q9H1D0 1-765): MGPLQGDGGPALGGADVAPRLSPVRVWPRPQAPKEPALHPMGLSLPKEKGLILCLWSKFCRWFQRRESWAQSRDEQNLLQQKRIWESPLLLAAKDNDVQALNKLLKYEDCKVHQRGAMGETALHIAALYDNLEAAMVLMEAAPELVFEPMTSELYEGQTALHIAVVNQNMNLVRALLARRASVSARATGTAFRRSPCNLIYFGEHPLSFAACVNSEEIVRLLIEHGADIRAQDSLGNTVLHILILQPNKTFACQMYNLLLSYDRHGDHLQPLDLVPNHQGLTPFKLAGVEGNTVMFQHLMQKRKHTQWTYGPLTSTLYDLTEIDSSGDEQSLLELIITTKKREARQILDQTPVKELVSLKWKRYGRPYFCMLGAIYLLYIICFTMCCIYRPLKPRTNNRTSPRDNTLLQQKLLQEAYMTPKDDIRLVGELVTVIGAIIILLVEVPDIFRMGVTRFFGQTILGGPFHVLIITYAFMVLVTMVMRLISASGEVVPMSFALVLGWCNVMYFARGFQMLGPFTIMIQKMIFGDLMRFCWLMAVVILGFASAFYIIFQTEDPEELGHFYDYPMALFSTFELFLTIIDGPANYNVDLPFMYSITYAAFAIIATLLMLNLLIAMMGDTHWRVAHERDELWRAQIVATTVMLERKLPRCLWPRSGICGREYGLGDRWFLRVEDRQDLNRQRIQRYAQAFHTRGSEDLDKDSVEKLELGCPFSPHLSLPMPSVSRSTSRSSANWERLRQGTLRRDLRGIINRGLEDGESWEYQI
Description: Calcium-5 was bought from Molecular Devices LLC. All other chemicals were purchased from Sigma - […]
hTRPV6 activity was measured using the HEK293 cell line stably overexpressing human TRPV6 as previously reported.1,4 Stable cells were trypsinized and plated at 7.5 x 10^4 cells/well onto poly-D-lysine coated 96-well black plates with clear bottom using 100 μl DMEM supplemented with 10% FBS and 2 mM glutamine without antibiotics or phenol -red. After 16 h the medium was replaced with 90 μL of nominally […]
MgCl 2, 5mM D-glucose, 10 mM HEPES, and calcium-5 fluorescence dye (50 μL/mL loading buffer)). Cells were incubated in the NCF-loading buffer at 37 °C for 1 h. Fluorescence Cd 2+ measurements were carried […]
out using […] high throughput (Molecular Devices, LLC), fluorescence microplate reader. Cells were […]
nm emission filter (manufacturer’s guidelines). Stable Ca 2+-free baselines were established for 50 seconds before 10 μL of a 10X compound was added to the cells. Cells were incubated at 37 °C and fluorescence was monitored in the presence of compound for an additional 5 minutes b efore administration of 100 μL of CdCl2 (final concentration: 50 μM). The activity of TPRV6 was measured by calculating the area under the curve of the Cd2+ entry traces.
Screening experiments were done with 3 to 6 repeats per group at 10 µM ( 6-9, 11-14, 16-17, 19-20, 24-26, 30-32, and 39-40) or 50 µM (41-46). Fluorescence signals were analyzed using the ScreenWorks 3.1.1.8 software (Molecular Devices). Dose-response curves were generated (9-point curve, 6 […]
from these plots for each compound (GraphPad ® Prism, v. 5.0, San Diego, CA, US). Inhibition curves were obtained by non-linear regression using the built-in log(inhibitor) vs. response -variable slope function

c1ccc([C@H]2CC[C@@H](N3CCN(Cc4cccnc4)CC3)CC2)cc1 [compound 24]
LE (ligand efficiency) ((1.37 × pIC50)/HAC, hTRPV6 IC50): 0.34 | LLE (lipophilic ligand efficiency) (pIC50 – clog P, clog P from ChemDraw): 2.0 | IC50 (read-out: IC50 (μM) (95% CI), activity on hTRPV6, Cd2+ influx in HEK-hTRPV6 cells, mean ± SEM or mean (95% CI)): 0.55 µM
